The IC50 is the concentration that gives 50% inhibition.

The chains behind the UniProt entries cited, without tags or fusion partners. Residues count along the entry.
UniProt O60894, 27-148: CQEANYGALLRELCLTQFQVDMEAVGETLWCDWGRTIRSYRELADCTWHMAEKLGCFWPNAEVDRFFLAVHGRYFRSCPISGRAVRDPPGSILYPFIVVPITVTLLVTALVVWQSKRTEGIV
UniProt Q16602, 23-461: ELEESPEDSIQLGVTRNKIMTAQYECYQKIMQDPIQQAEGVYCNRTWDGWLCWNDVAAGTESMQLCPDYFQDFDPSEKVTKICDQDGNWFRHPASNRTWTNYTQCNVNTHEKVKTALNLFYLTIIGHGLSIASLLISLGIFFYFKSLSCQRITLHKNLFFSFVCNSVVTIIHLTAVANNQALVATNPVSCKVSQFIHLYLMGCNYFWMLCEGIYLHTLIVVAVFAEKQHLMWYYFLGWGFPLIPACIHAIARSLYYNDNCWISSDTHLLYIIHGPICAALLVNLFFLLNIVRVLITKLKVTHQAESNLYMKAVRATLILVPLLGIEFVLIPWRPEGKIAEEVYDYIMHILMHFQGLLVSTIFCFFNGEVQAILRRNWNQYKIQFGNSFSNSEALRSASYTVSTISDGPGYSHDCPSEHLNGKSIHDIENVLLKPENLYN

Molecules are shown by their SMILES.

The values below come from patent EP4781986A1, “PHARMACEUTICAL COMPOSITION HAVING IMPROVED PHARMACOKINETIC PROPERTIES” (Sichuan Purity Pharmaceutical Co., Ltd., priority 2023, dated 2025).

This test addresses T1, CGRP receptor complex (Homo sapiens, UniProt O60894+Q16602).
T1 construct: SK-N-MC (neuroepithelioma cells) from National Science and Technology Infrastructure; host or cells: SK-N-MC
In words: determination of cell functional antagonism - cAMP determination. Particulars: inhibition of CGRP-stimulated cAMP formation in SK-N-MC cells. The class given is cell-based. The method, then: A CGRP receptor complex was coupled with Gs in G protein, the combination of CGRP and CGRP receptor complex led to Gs activation, and cAMP (3',5'-cyclic adenosine monophosphate) was produced.
The ability of the compound of the present invention to inhibit CGRP-stimulated cAMP formation in SK-N-MC cells was determined.
SK-N-MC (neuroepithelioma cells) from National Science and Technology Infrastructure - Biomedical Materials and Cell Resources.
The SK-N-MC cells were resuscitated and cultured in advance, and a cell confluence degree should be 70%-80% before use.
4.2 A sample dilution, a tested compound and α-CGRP (human) were prepared.
The SK-N-MC cells were digested, centrifuged, then resuspended with the sample dilution, and inoculated into a 384-well plate. Each well was added with the α-CGRP (human) and the tested compound respectively, and blown and mixed evenly. The well plate was adhered with a sealing film, and placed on an enzyme-labeled incubator to incubate at 25°C.
4.4 cAMP determination: carried out according to LANCE Ultra cAMP Kit specification EucAMP tracer and ULight-anti-cAMP working solutions were prepared in the dark, respectively added into the well plate, and blown and mixed evenly. […]
4.5 A luminescence value was read by a chemiluminescent module of an automatic enzyme-labeled instrument.
On the technique in general: cAMP levels reflect the balance of adenylyl cyclase and phosphodiesterase activity.

With `Cc1cc(C[C@H](NC(=O)N2CCC(c3cc4c([nH]c3=O)SCCC4)CC2)C(=O)N2CCN(C3CCN(C)CC3)CC2)cc2cn[nH]c12` [Example 28, (S)-N-(3-(7-methyl-1H-indazole-5-yl)-1-(4-(1-methylpiperidine-4-yl)piperazine-1-yl)-1-oxopropan-2-yl)-4-(7-oxo-3,4,7,8-tetrahydro-2H-thiopyrano[2,3-b]pyridine-6-yl)piperidine-1-formamide], the 50% inhibitory concentration (IC50) worked out at 10.1 nM. On to `[2H]C([2H])([2H])N1CCC(N2CCN(C(=O)[C@@H](Cc3cc(C)c4[nH]ncc4c3)NC(=O)N3CCC(c4cc5c([nH]c4=O)SCC5)CC3)CC2)CC1` [Example 29, (R)-N-(3-(7-methyl-1H-indazole-5-yl)-1-(4-(1-(methyl-d3)piperidine-4-yl)piperazine-1-yl)-1-oxopropan-2-yl)-4-(6-oxo-2,3,6,7-tetrahydrothieno[2,3-b]pyridine-5-yl)piperidine-1-formamide], for which the IC50 came out at 0.23 nM.
